Structures are written as SMILES.

The nature of the data set: Present human PBK model, model evaluation (scenarios 3 and 4). The note with it: present model vs Oh et al. (BPS dosing). An excerpt:
Diet is the main route of human exposure to bisphenols; therefore, models were designed herein for oral administration. Several exposure scenarios were defined for parameter gathering, model evaluation, and internal exposure assessment (Table ). In scenarios 1 and 2, a rat PBK model was used to parametrize enterohepatic circulation (EHC) rates for application in human PBK models. […] Models were developed for four human physiologies: male (“man”) and female adults (“woman”), male “child”, and male “toddler” (Table S2). These models were selected based on available physiological data for key organs (thyroid, breasts, and testes), related to ED and the detected bisphenol exposure level. The repeated dose scheme from Karrer et al. was reproduced (scenarios 9 to 12) to model chronic exposure via three meals a day.
A common model structure was employed for the seven bisphenols (Figure ). When not individually compartmentalized, organs were categorized as either slowly perfused tissues or rapidly perfused tissues and combined. […]
To address parameter uncertainty in concentrations that were predicted with human PBK models, 10,000 Monte Carlo (MC) simulations were performed. […] MC simulation outcomes were analyzed by comparing the first quartile, the median, and the third quartile values of concentrations per time point.

As to `O=S(=O)(c1ccc(O)cc1)c1ccc(O)cc1` [BPS, Bisphenol S], the “mean predicted AUC, times higher than in vivo” value is reported as 4 times.

The values are drawn from paper PMC12509328, “Human Internal Exposures of Bisphenol A and Six Data-Poor Analogs Predicted by Physiologically Based Kinetic Models with Multimodal Parametrization” (Environmental Science & Technology, 2025).
